## Ab-95 light chain CDR variants: yeast mating affinities

Reference: Engelhart et al. 2022, doi:10.1038/s41597-022-01779-4. File: FLAb, binding data.

The target is the same throughout: PDVDLGDISGINAS, from the HR2 region of SARS-CoV-2 spike.

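The parent was found by panning a naive human phage display library on the peptide. In library AAYL52, one, two or three CDR residues were substituted; doubles and triples were drawn at random. AlphaSeq pools MATa yeast showing the antibodies with MATalpha yeast showing the peptide. After mating in shaken culture at 30 °C for 16 h, diploids were selected and their barcode pairs sequenced. Read counts were normalised to the haploid input and turned into Kd by a linear fit to BCL2-family pairs of known affinity, for each replicate. Mating was done three times.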

The variants keep the heavy chain, the linker and the frameworks of Ab-95 (scFv order VH, a 15-residue (Gly4Ser)3 linker, VL).
VH: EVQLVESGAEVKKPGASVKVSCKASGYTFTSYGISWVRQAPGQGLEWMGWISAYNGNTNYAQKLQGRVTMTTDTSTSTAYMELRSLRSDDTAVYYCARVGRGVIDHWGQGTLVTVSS
VL: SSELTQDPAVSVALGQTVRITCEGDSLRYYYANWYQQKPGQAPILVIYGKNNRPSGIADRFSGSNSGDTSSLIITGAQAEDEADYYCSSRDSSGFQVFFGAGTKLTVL

The whole VL of each variant is written out. Numbers give log10(Kd / nM), so 0 is 1 nM and 3 is 1 µM. Smaller is tighter. Where no diploid with the target was found in that replicate, the entry reads "nd": below detection, most likely a poor binder, though not proof of it. For reference, the parent read 2.31 as the reference entry and 2.25 as a member of this library. Three control strains display no target. For library AAYL52, 28% of the pairings with them gave a signal, with a median of 3.91 and one signal in twenty below 2.90, so weak values seen in few replicates may be background.

VL,"replicates, log10 nM"
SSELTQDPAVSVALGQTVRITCEGDSIRYYYANWYQQKPGQAPILVIYGKNNRPSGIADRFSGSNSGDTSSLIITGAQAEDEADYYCSSRDSPPFQVFFGAGTKLTVL,3.65 3.64 3.59
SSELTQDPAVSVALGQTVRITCEGDSLRYYYAFWYQQKPGQAPILVIYLKNNRPSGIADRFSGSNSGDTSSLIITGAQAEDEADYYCNSRDSSGFQVFFGAGTKLTVL,5.29 3.95 nd
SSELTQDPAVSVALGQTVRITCEQDSLRYYYANWYQQKPGQAPILVIYVKNNRPSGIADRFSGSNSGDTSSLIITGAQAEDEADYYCSSRDSSGFHVFFGAGTKLTVL,5.72 nd nd
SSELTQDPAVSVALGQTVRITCEGDSLRCYYANWYQQKPGQAPILVIYGKNNRPSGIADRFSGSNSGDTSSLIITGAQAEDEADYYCHSRDSSGFQVSFGAGTKLTVL,3.63 2.77 2.98
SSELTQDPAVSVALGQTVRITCEGDSSRYYYANWYQQKPGQAPILVIYGKNWRPSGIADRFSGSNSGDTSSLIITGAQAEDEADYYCSSRDSSGFNVFFGAGTKLTVL,2.78 3.52 2.46
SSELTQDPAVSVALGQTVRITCEGDSLAYYYENWYQQKPGQAPILVIYGKNNRPSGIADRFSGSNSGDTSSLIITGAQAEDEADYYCSSRDWSGFQVFFGAGTKLTVL,4.22 nd nd
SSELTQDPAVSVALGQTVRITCEGDSLRWYYPNWYQQKPGQAPILVIYGKDNRPSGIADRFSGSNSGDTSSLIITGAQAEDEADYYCSSRDSSGFQVFFGAGTKLTVL,3.92 3.96 2.86
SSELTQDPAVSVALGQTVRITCEGDSLRYYYAYWYQQKPGQAPILVIYGKNNRPSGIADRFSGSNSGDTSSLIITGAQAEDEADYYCSSRPSSSFQVFFGAGTKLTVL,4.14 nd nd
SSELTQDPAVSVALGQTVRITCLGDSLRYYYANWYQQKPGQAPILVIYGKNNRPRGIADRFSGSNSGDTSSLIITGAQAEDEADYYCSHRDSSGFQVFFGAGTKLTVL,3.25 3.08 3.51
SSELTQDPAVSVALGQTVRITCERDSLRYYYANWYQQKPGQAPILVIYGKNNWPSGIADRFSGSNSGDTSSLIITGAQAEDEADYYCSSRDSSGFQVPFGAGTKLTVL,nd 5.21 nd
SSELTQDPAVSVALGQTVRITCEGDALRYYYANWYQQKPGQAPILVIYGKGNRPSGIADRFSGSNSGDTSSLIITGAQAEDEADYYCSSRTSSGFQVFFGAGTKLTVL,2.96 3.14 2.82
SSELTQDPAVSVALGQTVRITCEGDSLRYYYANWYQQKPGQAPILVIYGKNNRPSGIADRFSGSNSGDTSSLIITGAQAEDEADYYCSSRQSSGTCVFFGAGTKLTVL,3.91 3.15 3.76
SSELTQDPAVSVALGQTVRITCEGDSLRYYYTNWYQQKPGQAPILVIYGKNNRPSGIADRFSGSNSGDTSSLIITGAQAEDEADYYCSSRDSSGFQHFFGAGTKLTVL,2.73 2.38 1.90
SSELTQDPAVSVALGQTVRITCEGWSLRYYYANWYQQKPGQAPILVIYGKNNRPSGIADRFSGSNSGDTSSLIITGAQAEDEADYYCSSRDDSGFGVFFGAGTKLTVL,3.70 2.91 nd

Excerpt, the first 2 entries:

VL,"replicates, log10 nM"
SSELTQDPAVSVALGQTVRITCEGDSIRYYYANWYQQKPGQAPILVIYGKNNRPSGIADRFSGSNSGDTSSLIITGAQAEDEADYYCSSRDSPPFQVFFGAGTKLTVL,3.65 3.64 3.59
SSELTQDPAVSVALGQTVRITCEGDSLRYYYAFWYQQKPGQAPILVIYLKNNRPSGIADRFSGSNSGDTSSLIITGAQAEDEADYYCNSRDSSGFQVFFGAGTKLTVL,5.29 3.95 nd